Values quoted from earlier work in patent US4933369A, “Dimethyl tyrosyl amide sulfides, sulfoxides and sulfones” (G. D. Searle & Co., priority 1988, dated 1990).

System: opioid receptors
Conditions: cited from earlier work

## C=CCN1CC[C@]23c4c5ccc(O)c4O[C@H]2C(=O)CC[C@@]3(O)[C@H]1C5 [naloxone]
  affinity for all opioid receptors: high affinity
μ receptors vs 6 receptor sites
  affinity for μ receptors relative to 6 receptor sites: more than ten times higher
